Test results published in patent US20060257489A1, “Fine particles, method and device for preparation thereof, and agent for parenteral injection and method for production thereof” (priority 2003, published 2006).

Assay: absorbance characteristic before and after laser beam irradiation (photochemical reaction / degeneration)
Type: physicochemical
Conditions: saturated water solution, 355 nm (YAG triple higher harmonics)
Experimental: The absorbance characteristic of the solution was measured by using a general-purpose spectrophotometer (HITACHI U-3500). […] The optical path length was set to 10 mm for the measurement.

CCCC(=O)O[C@]1(C(=O)CCl)[C@H](C)C[C@@H]2[C@@H]3CCC4=CC(=O)C=C[C@]4(C)[C@]3(F)C(=O)C[C@@]21C [clobetasone butyrate]
variation of the absorbance characteristic before and after light irradiation: no variation
